The data set addresses DNA MTase‐like domain of DNMT3L (residues 179–379) (UniProt Q9UJW3). Nature of the data set: AUC; sedimentation velocity, 40,000 rpm, 15 h, 20 C; 20 mM Tris-HCl pH 8.0, 300 mM NaCl, 1 mM TCEP, 5% glycerol; WT DNMT3BΔ214-3L at 2.5, 5.0 and 6.25 uM, mutant complexes at 5 uM; c(s) model in SEDFIT.

Chains of the proteins cited; added tags and fusions are not shown. Residues count along the entry.
UniProt Q9UJW3, 179-379: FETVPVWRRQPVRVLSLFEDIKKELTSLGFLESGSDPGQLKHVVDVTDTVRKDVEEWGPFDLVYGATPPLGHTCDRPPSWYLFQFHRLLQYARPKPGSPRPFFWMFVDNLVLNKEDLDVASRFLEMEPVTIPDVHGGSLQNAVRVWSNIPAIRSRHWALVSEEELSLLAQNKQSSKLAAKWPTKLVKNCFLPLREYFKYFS

“DNMT3BΔ214 (residues 215–853), wild type”: the “percent of the population in the DNMT3B-3L heterodimer peak (78 kDa); the rest mostly hetero-tetramer” value is reported as “a minor peak with an estimated MW of 78 kDa (2%)”.

The values above are taken from paper PMC11408749.
